Literature values as cited in US9999655B2, “Use of MKS inhibitor peptide-containing compositions for treating non-small cell lung cancer with same” (Moerae Matrix, Inc., priority 2015, dated 2018).

Test system: advanced NSCLC
Settings: patients with advanced NSCLC; P=0.04; cited from earlier work

In the case of Cetuximab, the overall survival is listed as 11.3 months.
